Consider three molecules from patent publication US8536168B2 (Novartis AG, priority 2007, dated 2013).

Sequences of proteins named here, by UniProt entry; tags and fusion partners are left off. Residues count along the entry.
UniProt P56726, 33-793 limits assumed: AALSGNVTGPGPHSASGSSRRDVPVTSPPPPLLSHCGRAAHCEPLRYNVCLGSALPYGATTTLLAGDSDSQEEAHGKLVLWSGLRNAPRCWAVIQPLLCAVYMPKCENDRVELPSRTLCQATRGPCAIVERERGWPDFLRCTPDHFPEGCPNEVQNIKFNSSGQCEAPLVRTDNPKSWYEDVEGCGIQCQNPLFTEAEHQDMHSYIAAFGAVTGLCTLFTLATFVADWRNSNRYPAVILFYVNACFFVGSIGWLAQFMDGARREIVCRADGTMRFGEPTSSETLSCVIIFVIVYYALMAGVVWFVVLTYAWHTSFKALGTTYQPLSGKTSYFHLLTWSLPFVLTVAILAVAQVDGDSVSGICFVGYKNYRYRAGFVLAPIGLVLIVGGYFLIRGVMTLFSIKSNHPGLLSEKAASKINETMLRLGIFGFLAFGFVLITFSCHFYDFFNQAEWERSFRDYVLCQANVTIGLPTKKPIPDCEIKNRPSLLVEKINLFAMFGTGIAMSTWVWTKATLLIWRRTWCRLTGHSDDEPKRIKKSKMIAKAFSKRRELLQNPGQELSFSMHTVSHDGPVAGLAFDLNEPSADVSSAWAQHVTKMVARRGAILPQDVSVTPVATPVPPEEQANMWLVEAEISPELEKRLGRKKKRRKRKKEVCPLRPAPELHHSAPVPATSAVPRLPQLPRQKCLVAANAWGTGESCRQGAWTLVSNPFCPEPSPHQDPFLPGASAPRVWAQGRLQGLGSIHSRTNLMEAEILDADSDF
UniProt Q99835, 28-787 limits assumed: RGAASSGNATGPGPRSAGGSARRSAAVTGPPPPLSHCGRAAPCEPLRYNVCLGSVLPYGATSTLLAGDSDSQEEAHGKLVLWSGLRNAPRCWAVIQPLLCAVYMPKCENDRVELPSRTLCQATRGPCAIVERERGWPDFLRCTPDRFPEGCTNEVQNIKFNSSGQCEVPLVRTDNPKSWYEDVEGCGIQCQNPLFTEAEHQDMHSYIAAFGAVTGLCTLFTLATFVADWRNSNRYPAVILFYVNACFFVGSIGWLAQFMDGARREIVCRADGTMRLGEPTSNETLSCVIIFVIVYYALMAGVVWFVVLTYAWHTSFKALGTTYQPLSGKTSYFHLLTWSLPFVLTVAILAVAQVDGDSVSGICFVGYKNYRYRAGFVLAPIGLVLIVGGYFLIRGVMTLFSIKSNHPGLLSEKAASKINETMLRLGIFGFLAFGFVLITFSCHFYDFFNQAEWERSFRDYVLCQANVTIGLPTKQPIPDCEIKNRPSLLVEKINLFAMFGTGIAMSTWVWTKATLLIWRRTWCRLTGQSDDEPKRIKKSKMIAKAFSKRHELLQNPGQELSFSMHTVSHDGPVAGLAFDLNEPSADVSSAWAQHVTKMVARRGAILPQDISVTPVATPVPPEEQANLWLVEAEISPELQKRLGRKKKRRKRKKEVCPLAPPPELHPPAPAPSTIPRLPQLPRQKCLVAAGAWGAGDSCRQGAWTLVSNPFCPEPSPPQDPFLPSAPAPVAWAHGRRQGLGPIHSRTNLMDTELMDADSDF

Like-named read-outs stand apart in the source and are kept apart here.

In one assay the test system is Gli-luciferase activity. The experiment in a line: Reporter gene assay (RGA) in TMHh12 cells, antagonism of Gli-luciferase activity in the presence of a Smo agonist. On the technique in general: In a reporter assay the amount or activity of a reporter protein is the signal.
Assay [1] deals with mouse Smoothened receptor (Mus musculus, UniProt P56726). The experiment in a line: Smo binding assay, displacement of radio-labeled smoothened agonist, filter binding format (mouse). The conditions noted are these: read-out: Mouse Smo bdg., IC50, displacement of small molecule agonist of Smoothened.
Assay [2] deals with human Smoothened receptor (Homo sapiens, UniProt Q99835). The experiment in a line: Smo binding assay, displacement of radio-labeled smoothened agonist, filter binding format (human). The conditions noted are these: read-out: Human Smo bdg., IC50, displacement of small molecule agonist of Smoothened. The source says: A Smo binding assay was developed using radio-labeled smoothened agonist for compound competition. Table 9 lists the IC50 for displacement of a small molecule agonist of Smoothened determined in a filter binding format for the mouse and human Smoothened receptor.

[3] abbreviates: read-out: RGA (1 nM Smo agonist) IC50, 1 nM small molecule Smo agonist.
Where [4] appears, read: read-out: RGA (25 nM Smo agonist) IC50, 25 nM small molecule Smo agonist.

A word on the IC50: it is the point on the concentration scale where inhibition reaches its midpoint. Regarding `COC(=O)c1ccc(CN2CCN(c3nnc(Cc4ccccc4)c4ccccc34)CC2)nc1`, the IC50 in the assay with Gli-luciferase activity (setting [3]) fell in the range of 100 to 1000 nM; in the assay on Gli-luciferase activity (setting [4]), 1000 to 10000 nM; in assay [1], 1000 to 10000 nM; in assay [2], 1000 to 10000 nM.

For the molecule `OC1CN(Cc2ccc(N3CCN(c4nnc(Cc5ccccc5)c5ccccc45)CC3)nc2)C1`, the IC50 in the assay with Gli-luciferase activity (setting [3]) is less than 100 nM; with Gli-luciferase activity (setting [4]), 100 to 1000 nM; in assay [1], 100 to 1000 nM; in assay [2], 100 to 1000 nM.

Turning to `Cc1cc(N2CCN(c3ccc(C(F)(F)F)cn3)CC2)nnc1Cc1ccc(F)cc1`, the IC50 (in the assay on Gli-luciferase activity (setting [3]); in assay [1]; in assay [2]) was less than 100 nM throughout.
